{"source": "patent US20050175505A1", "about": "“Personal monitor to detect exposure to toxic agents” (published 2005)", "test_system": "cholinesterase enzyme (ChE)", "assay": "Inhibition of fresh, soluble (non-immobilized) ChE by OP, kinetic read at 405 nm", "details": "enzyme and OP diluted 1:100, 2 μl enzyme, 2 μl OP, 100 μl substrate"}
{"smiles": "CCOP(=S)(OCC)Oc1cc(C)nc(C(C)C)n1", "values": [{"measurement": "inhibition of ChE activity", "result": "Significant inhibition"}]}
